Molecular target: T1, Prostaglandin G/H synthase 2 (Mus musculus, UniProt Q05769)
T1 sequence (Q05769 whole entry): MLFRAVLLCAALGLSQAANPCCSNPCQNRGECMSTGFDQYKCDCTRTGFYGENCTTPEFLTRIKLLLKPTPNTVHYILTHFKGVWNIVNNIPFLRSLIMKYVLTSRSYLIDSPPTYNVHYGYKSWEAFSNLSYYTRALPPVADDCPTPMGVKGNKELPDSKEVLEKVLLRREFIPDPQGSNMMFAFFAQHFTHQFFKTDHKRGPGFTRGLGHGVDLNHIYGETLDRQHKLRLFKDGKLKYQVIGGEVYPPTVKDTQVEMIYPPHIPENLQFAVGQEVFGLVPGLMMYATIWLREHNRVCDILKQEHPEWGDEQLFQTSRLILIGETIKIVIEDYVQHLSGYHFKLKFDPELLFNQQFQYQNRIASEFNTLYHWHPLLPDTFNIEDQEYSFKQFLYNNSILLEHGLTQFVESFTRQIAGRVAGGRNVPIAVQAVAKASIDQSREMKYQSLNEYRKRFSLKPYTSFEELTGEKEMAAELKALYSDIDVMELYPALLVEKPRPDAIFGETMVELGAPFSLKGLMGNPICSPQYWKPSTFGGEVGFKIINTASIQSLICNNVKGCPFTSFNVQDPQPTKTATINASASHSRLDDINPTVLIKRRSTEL
Test: Inhibitory activity against Prostaglandin G/H synthase 2 from freshly harvested mouse peritoneal macrophages

| SMILES | IC50 [nM] |
| --- | --- |
| CS(=O)(=O)c1ccc(-c2occ(Cl)c(=O)c2-c2ccc(F)cc2)cc1 | 1480 |
| CS(=O)(=O)c1ccc(-c2occ(Cl)c(=O)c2-c2ccc(Cl)cc2)cc1 | 936 |

Source: ChEMBL document CHEMBL1147555, “2,3-diarylpyran-4-ones: a new series of selective cyclooxygenase-2 inhibitors” (Bioorg Med Chem Lett, 2004)
